These are literature values, as cited in publication PMC4629469 (Bioorganic & medicinal chemistry letters, 2015).

The subject of the series is μ-opioid receptor. The note with it: cited from earlier work.

Each structure is given as a SMILES string.

On to `CCOC(=O)C1(c2ccccc2)CCN(C)CC1` [pethidine], for which the “μ-opioid receptor agonist activity” value was “weak μ-opioid receptor agonist activity”.
